This passage reports Ki results from patent US6849732B2, “Metalloproteinase inhibitors, pharmaceutical compositions containing them and their pharmaceutical uses, and methods and intermediates useful for their preparation” (Agouron Pharmaceuticals, Inc., priority 1995, dated 2005).

By UniProt entry, the sequences of proteins in these tests, tags left out. Residues count along the entry.
UniProt P08254, 100-477 limits assumed: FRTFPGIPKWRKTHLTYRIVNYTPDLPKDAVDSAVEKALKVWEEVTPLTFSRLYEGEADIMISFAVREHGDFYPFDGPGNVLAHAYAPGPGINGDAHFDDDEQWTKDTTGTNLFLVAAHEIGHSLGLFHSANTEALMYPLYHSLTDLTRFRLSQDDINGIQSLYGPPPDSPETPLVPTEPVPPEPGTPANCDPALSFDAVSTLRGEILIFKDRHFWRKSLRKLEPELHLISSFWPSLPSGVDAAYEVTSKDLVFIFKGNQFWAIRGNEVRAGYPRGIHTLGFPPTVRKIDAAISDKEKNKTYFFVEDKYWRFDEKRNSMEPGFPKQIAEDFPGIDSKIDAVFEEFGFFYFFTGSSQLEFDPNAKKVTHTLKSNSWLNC
UniProt P09237, 95-267 limits assumed: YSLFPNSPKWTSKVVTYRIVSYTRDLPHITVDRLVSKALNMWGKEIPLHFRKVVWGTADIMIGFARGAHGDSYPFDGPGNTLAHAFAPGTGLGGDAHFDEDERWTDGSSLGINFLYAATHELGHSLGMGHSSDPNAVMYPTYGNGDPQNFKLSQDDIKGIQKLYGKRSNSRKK
UniProt P03956, 100-469 limits assumed: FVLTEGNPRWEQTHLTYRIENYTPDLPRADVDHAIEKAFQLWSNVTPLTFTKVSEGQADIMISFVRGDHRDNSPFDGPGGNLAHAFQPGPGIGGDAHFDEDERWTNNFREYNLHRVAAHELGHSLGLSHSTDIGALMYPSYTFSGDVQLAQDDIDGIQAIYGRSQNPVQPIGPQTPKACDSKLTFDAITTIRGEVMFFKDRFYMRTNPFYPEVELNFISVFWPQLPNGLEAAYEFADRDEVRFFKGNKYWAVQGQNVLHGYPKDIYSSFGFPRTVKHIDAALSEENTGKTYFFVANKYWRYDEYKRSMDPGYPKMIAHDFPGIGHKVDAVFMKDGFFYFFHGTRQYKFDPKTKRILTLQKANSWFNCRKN
UniProt P08253, 110-660 limits assumed: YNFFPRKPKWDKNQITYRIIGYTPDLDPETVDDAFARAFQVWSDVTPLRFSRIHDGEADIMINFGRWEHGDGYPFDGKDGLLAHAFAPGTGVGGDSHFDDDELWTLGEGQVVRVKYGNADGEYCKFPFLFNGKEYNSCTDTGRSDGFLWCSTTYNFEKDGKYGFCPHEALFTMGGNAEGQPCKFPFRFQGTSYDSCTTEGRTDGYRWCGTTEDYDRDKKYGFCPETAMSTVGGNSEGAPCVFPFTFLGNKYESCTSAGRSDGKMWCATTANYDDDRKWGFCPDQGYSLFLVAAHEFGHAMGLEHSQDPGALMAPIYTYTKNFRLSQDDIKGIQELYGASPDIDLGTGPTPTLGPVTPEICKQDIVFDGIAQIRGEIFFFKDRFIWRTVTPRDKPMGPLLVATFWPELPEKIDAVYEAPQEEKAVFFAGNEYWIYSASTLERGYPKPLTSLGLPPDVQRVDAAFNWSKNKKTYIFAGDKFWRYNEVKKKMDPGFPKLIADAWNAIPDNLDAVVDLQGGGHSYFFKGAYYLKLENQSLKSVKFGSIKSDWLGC

Structures are written as SMILES. Structures can show the parent of a compound that is named as a salt.

Common to all, as to assay type: biochemical
The target of assay [1] is stromelysin (HSLN) (Homo sapiens, UniProt P08254). The assay is described as follows: MCA fluorogenic enzyme assay, competitive inhibition analysis (Ki,app), stromelysin. The settings on record: read-out: Enzyme Inhibition Constants (K1) HSLN, MCA peptide substrate, 37° C., pH 7.5.
Assay [2] deals with matrilysin (Matr.) (Homo sapiens, UniProt P09237). The assay is described as follows: MCA fluorogenic enzyme assay, competitive inhibition analysis (Ki,app), matrilysin. To be noted: read-out: Enzyme Inhibition Constants (K1) Matr., MCA peptide substrate, 37° C., pH 7.5.
For assay [3], the target named is HFC (Homo sapiens, UniProt P03956). Description: MCA fluorogenic enzyme assay, competitive inhibition analysis (Ki,app), HFC. To be noted: read-out: Enzyme Inhibition Constants (K1) HFC, MCA peptide substrate, 37° C., pH 7.5.
The target in assay [4] is gelatinase A (HG72kD) (Homo sapiens, UniProt P08253). The assay is described as follows: MCA fluorogenic enzyme assay, competitive inhibition analysis (Ki,app), gelatinase A. The settings on record: read-out: Enzyme Inhibition Constants (K1) HG72kD, MCA peptide substrate, 37° C., pH 7.5.
The target of assay [5] is Coll3 (Homo sapiens, UniProt P45452). The assay is described as follows: MCA fluorogenic enzyme assay, competitive inhibition analysis (Ki,app), Coll3. The settings on record: read-out: Enzyme Inhibition Constants (K1) Coll3, MCA peptide substrate, 37° C., pH 7.5.

Turning to `CS(=O)(=O)N1CCN(S(=O)(=O)c2ccc(Oc3ccc(Cl)cc3)cc2)C(C(=O)NO)C1` (stereo not drawn), the Ki in assay [1] was 0.15 nM; in assay [2], 44 nM; in assay [3], 5.5 nM; in assay [4], 0.022 nM; in assay [5], 0.015 nM.

As to `CN1CCN(S(=O)(=O)c2ccc(Oc3ccc(Br)cc3)cc2)C(C(=O)NO)C1` (stereo not drawn), the Ki in assay [1] was 1.4 nM; in assay [2], 1860 nM; in assay [3] it was 257 nM; in assay [4], 0.035 nM; in assay [5] it was 0.022 nM.

Turning to `O=C(NO)[C@H]1CNCCN1S(=O)(=O)c1ccc(Oc2ccc(F)cc2)cc1` [Example 10(b), 2(R)-N-hydroxy-1-(4-(4-fluorophenoxy)benzenesulfonyl)-piperazine-2-carboxamide hydrochloride], the Ki turned out to be 1.9 nM in assay [1]; 2060 nM in assay [2]; 176 nM in assay [3]; 0.41 nM in assay [4]; 0.013 nM in assay [5].
